{
  "sequences": {"note": "The chains behind the UniProt entries cited, without tags or fusion partners. Residues count along the entry.", "UniProt P37231, 232-505": "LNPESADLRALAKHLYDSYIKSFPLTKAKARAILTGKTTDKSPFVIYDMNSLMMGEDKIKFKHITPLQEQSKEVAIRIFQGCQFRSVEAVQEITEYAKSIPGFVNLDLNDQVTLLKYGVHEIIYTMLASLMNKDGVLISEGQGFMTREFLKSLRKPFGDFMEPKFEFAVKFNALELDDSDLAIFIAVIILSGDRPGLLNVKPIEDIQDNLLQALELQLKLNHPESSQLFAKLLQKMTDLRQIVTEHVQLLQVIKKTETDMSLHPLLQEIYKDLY"},
  "source": "paper PMC7811525",
  "about": "“Virtual screening of potentially endocrine-disrupting chemicals against nuclear receptors and its application to identify PPARγ-bound fatty acids” (Archives of Toxicology, 2020)",
  "biological_target": "T1, PPARγ ligand binding domain (204–477) (Homo sapiens, UniProt P37231)",
  "T1 construct": "GST (N, cleaved yes); made in house; host or cells: E. coli BL21(DE3)",
  "test": "Surface plasmon resonance (SPR) analysis of fatty acid binding to immobilized PPARγ LBD",
  "experimental": "The protein was firstly purified using a glutathione Sephararose 4B column, followed by PreScission protease cleavage to remove the GST-tag. […] The finally collected protein in 20 mM Tirs, pH8.0, 150 mM NaCl and 2 mM DTT was concentrated to 20 mg/ml. The purity was checked by SDS-PAGE and protein was stored at − 80 °C for use.\nPPARγ (0.05 mg/ml) were coupled onto CM5 sensor chips according to amine coupling procedure from the manufacturer’s manual. […] A reference channel was generated at same conditions without protein injection and used as a blank control to correct the instrument or buffer artifacts. Fatty acids were dissolved in DMSO and diluted with concentration ranging from 0.78 to 50 μM, and injected at a flowrate of 40 μL/min. Each sensorgram consists of an association phase (120 s), indicating the binding of the injected compound to the protein, followed by a dissociation phase (300 s) during which the running buffer (10 mM phosphate buffer, 150 mM NaCl, 5% DMSO, 0.05% Tween 20, pH 7.4) is passed over and the bound compounds were eluted from the chip surface. The Kd was calculated by steady-state binding fitting method in Biacore T200 evaluate the software.",
  "data": [
    {"substance": "pinolenic acid [PLA]", "values": [
      {"measurement": "Rmax", "setting": "SPR steady-state fit, FUA: chip coupled with 12000RU", "value": "> 10,000.00 RU"},
      {"measurement": "binding to PPARγ in SPR (in words)", "setting": "compared with DHA and EPA", "value": "weaker binding than DHA"},
      {"measurement": "Kd", "setting": "steady-state fit, Biacore T200, chip about 6500 RU (FUA: chip coupled with 12000RU PPARγ LBD)", "value": "> 10", "unit": "mM"}
    ]}
  ]
}
